Values of other authors, collected in patent US20230192799A1, “CNP Variants and Conjugates Thereof” (BIOMARIN PHARMACEUTICAL INC., priority 2019, published 2023).

Conditions: in vivo in humans; cited from earlier work

## GLSKGCFGLKLDRIGSMSGLGC [CNP22]
  plasma half-life: 2.6 min
